## Yeast mating assay 2: variants of the scFv Ab-95

Binding partner: SARS-CoV-2 spike HR2 peptide, sequence PDVDLGDISGINAS.

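The library (AAYL52) carries one to three amino acid substitutions per variant, with no insertions or deletions. AlphaSeq pools MATa yeast showing the antibodies with MATalpha yeast showing the peptide. Pairs that bind mate more often; barcode pairs of the diploids are counted by sequencing. Scores were corrected for input abundance and mapped to Kd with protein pairs of known affinity run in the same pool. The assay was run in three technical replicates.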

The variants keep the heavy chain, the linker and the frameworks of Ab-95 (scFv order VH, a 15-residue (Gly4Ser)3 linker, VL).
VH: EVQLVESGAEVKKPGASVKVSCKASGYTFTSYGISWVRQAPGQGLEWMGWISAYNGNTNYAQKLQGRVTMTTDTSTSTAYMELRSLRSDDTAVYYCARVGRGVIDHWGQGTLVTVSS
VL: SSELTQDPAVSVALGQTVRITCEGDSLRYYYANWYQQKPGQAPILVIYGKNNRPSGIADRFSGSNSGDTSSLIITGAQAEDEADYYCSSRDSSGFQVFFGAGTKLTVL

Positions count from residue 1 of the parent VL; L27N puts N in place of L. Kd is apparent (estimated from mating counts) and averaged on the log scale over replicates with a signal. Smaller is tighter. An entry "not detected" has no value in the source: the pair was not observed among the diploids in any replicate. This suggests poor binding but is not conclusive. Nonspecific signal, from three strains lacking the peptide, appeared in 28% of pairings of library AAYL52, centred on 8.2 µM (5% of these signals below 800 nM); values are not corrected for it. The control count says in how many pairings with the empty strains this scFv gave a signal.

changes	apparent Kd	detected	empty controls
L27N S92A F95Y	800 nM	3 of 3	6 of 9
Y29M N33Q P54R	100 nM	3 of 3	0 of 9
D25S K50S Q96H	500 nM	3 of 3	4 of 9
N52K F95C V97M	1.5 µM	3 of 3	0 of 9
E23S P54S Q96F	220 nM	3 of 3	5 of 9
N51L S92D S93D	49 µM	2 of 3	4 of 9
N52F R53S G94F	13 µM	2 of 3	3 of 9
L27E Y30F S89L	13 µM	1 of 3	5 of 9
S26T K50C R90W	not detected	0 of 3	2 of 9
N33L N52Y D91K	not detected	0 of 3	5 of 9
Y29W K50Q R90M	7.2 µM	2 of 3	2 of 9
E23K R90H V97Y	1.3 µM	3 of 3	2 of 9
Y30H N52Y D91G	290 nM	3 of 3	5 of 9
G24S S26V N51T	not detected	0 of 3	2 of 9
R28F A32D R53C	not detected	0 of 3	2 of 9
R28A N52G R53Q	440 nM	3 of 3	6 of 9
R28K A32F P54C	38 µM	3 of 3	3 of 9
D25T A32E Q96R	13 µM	2 of 3	7 of 9
R28Y S89Q R90A	9.4 µM	3 of 3	4 of 9
E23Y D25S A32N	3.9 µM	3 of 3	1 of 9
E23S G49A	990 nM	3 of 3	2 of 9
R28P F95W	not detected	0 of 3	1 of 9
L27K N33I D91V	not detected	0 of 3	0 of 9
K50R N51M R53A	3.4 µM	1 of 3	4 of 9
D25L R90F S93L	21 µM	2 of 3	3 of 9
E23C D25I K50S	2.5 µM	2 of 3	5 of 9
G24N R28W S92N	not detected	0 of 3	0 of 9
E23S G49K S55W	15 µM	3 of 3	5 of 9
N33K G49H G94S	8.3 µM	2 of 3	3 of 9
R28Y N52H D91H	6.2 µM	3 of 3	4 of 9
R28S Q96G V97C	450 nM	3 of 3	3 of 9
E23L L27F N52S	1.5 µM	2 of 3	0 of 9
S26Q L27E G94P	720 µM	1 of 3	1 of 9
Y30T N33P S92R	9.2 µM	1 of 3	0 of 9
Y29K N33A Q96P	6.9 µM	2 of 3	6 of 9
L27D N52K S88T	8.9 µM	1 of 3	0 of 9
Y29N Q96H	26 nM	3 of 3	2 of 9
Y29F N33G G49E	20 µM	3 of 3	5 of 9
G24K L27F V97M	not detected	0 of 3	1 of 9

Further variants, results first:

apparent Kd	detected	empty controls	changes
not detected	0 of 3	2 of 9	K50C R90Y F95N
not detected	0 of 3	0 of 9	N33T S89Q Q96M
99 µM	2 of 3	3 of 9	A32C S89L F95D
100 µM	2 of 3	2 of 9	D25W G49I F98L
5.8 µM	2 of 3	0 of 9	L27K Y31R V97Y
18 µM	3 of 3	2 of 9	Y31Q N51C S89D
8.1 µM	1 of 3	0 of 9	S26D S92E F98N
7.5 µM	2 of 3	4 of 9	G49V Q96R
not detected	0 of 3	1 of 9	L27K K50A S88I
260 nM	3 of 3	1 of 9	S88K D91M G94D
5.3 µM	3 of 3	3 of 9	K50H S89L G94S
not detected	0 of 3	3 of 9	K50M R53K R90I
5.1 µM	2 of 3	3 of 9	Y29D D91I V97R
1.3 µM	2 of 3	1 of 9	Y29R S92V G94D
110 nM	3 of 3	2 of 9	L27H D91V F95Y
13 µM	2 of 3	2 of 9	D25G A32W K50A
310 nM	3 of 3	3 of 9	L27E Y30E Q96P
210 nM	3 of 3	4 of 9	D25K L27H Y31N
3.3 µM	1 of 3	2 of 9	N52T D91I F98H
1.2 µM	3 of 3	3 of 9	S55A S92M F95E
870 µM	1 of 3	4 of 9	R28A Y31H N33D
9.2 µM	3 of 3	2 of 9	G49H G94C V97A
8.1 µM	2 of 3	2 of 9	G24Y N33S V97N
380 nM	3 of 3	3 of 9	G24F P54V S55D
not detected	0 of 3	2 of 9	G49Q G94D Q96I
37 nM	3 of 3	4 of 9	Y31N R90H D91C
290 nM	3 of 3	1 of 9	S92H F98A
not detected	0 of 3	4 of 9	G24T R53F D91S
6.8 µM	2 of 3	4 of 9	L27C G49T S55H
2.9 µM	3 of 3	3 of 9	P54M S89H R90Q
12 µM	1 of 3	0 of 9	N33C S89R S93L
9.1 nM	3 of 3	4 of 9	R28K Y30Q F98A
39 nM	3 of 3	2 of 9	R28Q Y29N F98Q
2.4 µM	1 of 3	3 of 9	G49E S55H S92I
3.0 µM	3 of 3	2 of 9	P54C S92K S93Y
140 µM	3 of 3	4 of 9	E23G D25R N51K
530 nM	3 of 3	3 of 9	Y30K K50L N51K
11 µM	2 of 3	4 of 9	E23W D25H D91K
31 nM	3 of 3	1 of 9	D25K Y31D V97D

Again, the first 8 entries without any signal:

changes	apparent Kd	detected	empty controls
S26T K50C R90W	not detected	0 of 3	2 of 9
N33L N52Y D91K	not detected	0 of 3	5 of 9
G24S S26V N51T	not detected	0 of 3	2 of 9
R28F A32D R53C	not detected	0 of 3	2 of 9
R28P F95W	not detected	0 of 3	1 of 9
L27K N33I D91V	not detected	0 of 3	0 of 9
G24N R28W S92N	not detected	0 of 3	0 of 9
G24K L27F V97M	not detected	0 of 3	1 of 9

The measurements come from Engelhart et al. 2022 (doi:10.1038/s41597-022-01779-4) through the FLAb antibody collection.